The text below walks through data of PubChem BioAssay (EPA / NIEHS).

“And” between values parts separate entries of the source, which are not always exact repeats. Equal entries are not always repeated. This is a selection; strong and weak results do not stand in their true shares. More than one record can exist for a structure, and the calls need not agree. The source made the active and inactive calls. How the source made its calls: active means hit-call score of the fitted dose curve at least 0.9, where 1 is the maximum; inactive means score below 0.9.

Read-out in experiment [1]: Macrophage colony-stimulating factor (MCSF), CSF1 (gene 1435)
The experiment in a line: BSK_hDFCGF_MCSF: BioMAP Diversity Plus: hDFCGF Assay for Macrophage colony-stimulating factor (MCSF) Biomarker Activity (AID 2283060). Particulars: actives raise or lower the signal; primary human foreskin fibroblasts. The gist of the method:
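Human foreskin fibroblast primary cultures; M-CSF measured by ELISA 24 hours after chemical dosing. Bidirectional fitting relative to DMSO, with overt cytotoxicity tracked by parallel SRB total-protein staining (0.1% SRB, 10% TCA fixation, 560 nm).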

The nature of experiment [2]: BSK_hDFCGF_SRB: Viability Assessment in the BioMAP Diversity Plus: hDFCGF Assay (AID 2283061).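 Further: cells exposed to compound for 24 h before the read.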 Particulars: primary human foreskin fibroblasts. The procedure, abridged: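 Human foreskin fibroblasts in 96-well plates were treated 24 h. Total protein was measured by 0.1% SRB staining after 10% TCA fixation, read at 560 nm. Data were fitted bidirectionally against DMSO.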

Read-out in experiment [3]: TIMP metallopeptidase inhibitor 1 (TIMP1), TIMP1 (gene 7076)
The experiment in a line: BSK_hDFCGF_TIMP1: BioMAP Diversity Plus: hDFCGF Assay for TIMP metallopeptidase inhibitor 1 (TIMP1) Biomarker Activity (AID 2283062). The conditions noted are these: actives raise or lower the signal; primary human foreskin fibroblasts. The procedure, abridged: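 Human foreskin fibroblast primary cultures dosed for 24 h; secreted/surface TIMP-1 quantified by ELISA. Bidirectional curve fitting against DMSO baseline; cytotoxicity tracked in parallel cultures by SRB total-protein staining.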

Read-out in experiment [4]: Monokine induced gamma interferon (MIG), CXCL9 (gene 4283)
The experiment in a line: BSK_hDFCGF_MIG: BioMAP Diversity Plus: hDFCGF Assay for Monokine induced gamma interferon (MIG) Biomarker Activity (AID 2283063). Particulars: actives raise or lower the signal; primary human foreskin fibroblasts. The procedure, abridged: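 MIG/CXCL9 measured by ELISA 24 h after dosing primary human skin fibroblasts. Activity fitted in both directions against DMSO controls. Cytotoxicity was checked in parallel cultures by SRB staining read at 560 nm.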

Read-out in experiment [5]: Matrix Metallopeptidase 1 (MMP1), MMP1 (gene 4312)
The experiment in a line: BSK_hDFCGF_MMP1: BioMAP Diversity Plus: hDFCGF Assay for Matrix Metallopeptidase 1 (MMP1) Biomarker Activity (AID 2283064). The conditions noted are these: actives raise or lower the signal; primary human foreskin fibroblasts. The gist of the method: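 Primary human foreskin fibroblasts exposed to chemicals for 24 h; MMP1 measured by ELISA. Cytotoxicity tracked by SRB staining in parallel cultures; bidirectional fit relative to DMSO.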

Read-out in experiment [6]: Vascular cell adhesion molecule 1 (VCAM1), VCAM1 (gene 7412)
Briefly: BSK_hDFCGF_VCAM1: BioMAP Diversity Plus: hDFCGF Assay for Vascular cell adhesion molecule 1 (VCAM1) Biomarker Activity (AID 2283065).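 On AC50: VCAM-1 protein level quantified by ELISA after 24 h chemical exposure.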 The conditions noted are these: actives raise or lower the signal; primary human foreskin fibroblasts. The procedure, abridged:
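Human foreskin fibroblast primary cells dosed with chemical, VCAM-1 measured by ELISA at 24 h. Bidirectional curve fitting relative to DMSO as negative control/baseline.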

Read-out in experiment [7]: Plasminogen activator inhibitor-1 (PAI1), SERPINE1 (gene 5054)
Briefly: BSK_hDFCGF_PAI1: BioMAP Diversity Plus: hDFCGF Assay for Plasminogen activator inhibitor-1 (PAI1) Biomarker Activity (AID 2283066). Particulars: actives raise or lower the signal; primary human foreskin fibroblasts. Here is the method:
BSK_hDFCGF is a cell-based, multiplexed-readout assay that uses foreskin fibroblast, a human skin primary cell, with measurements taken at 24 hours after chemical dosing in a 96-well plate.BSK_hDFCGF_PAI1 is an assay component measured in the BSK_hDFCGF assay. It measures PAI-1 antibody related to regulation of gene expression using ELISA technology.Data from the assay component BSK_hDFCGF_PAI1 was analyzed into 1 assay endpoint. This assay endpoint, BSK_hDFCGF_PAI1, was analyzed with bidirectional fitting relative to DMSO as the negative control and baseline of activity. Using a type of binding reporter, gain or loss-of-signal activity can be used to understand changes in the signaling as they relate to the gene SERPINE1. Furthermore, this assay endpoint can be referred to as a primary readout, because this assay has produced multiple assay endpoints where this one serves a signaling function. To generalize the intended target to other relatable targets, this assay endpoint is annotated to the cytokine intended target family, where the subfamily is plasmogen activator inhibitor.
The levels of cell surface (or secreted, indicated by the prefix "s") biomarker endpoints were measured by ELISA. Overt cytotoxicity to cells in confluent adherent cultures (all systems other than the BT system) was assessed by measuring total protein levels using sulforhodamine B (SRB) staining in parallel cultures at the time of biomarker measurements, indicated as SRB endpoints. For proliferation assays for adherent cell types, individual cell types are cultured at sub-confluence and relative cell numbers quantified by SRB staining at time points optimized for each system (48 h: 3C and CASM3C systems; 72 h: BT and HDF3CGF systems; 96 h: SAg system). SRB was performed by staining cells with 0.1% SRB after fixation with 10% TCA and reading wells at 560 nm.Viability and proliferation of PBMC (T cells) was quantified by Alamar Blue reduction for the SAg and BT systems. For PBMC viability (referred to as PBMC Cytotoxicity within the assay endpoint names), cells were plated (75,000/well in a 96-well plate) and then chemical samples added for 1 h before addition of activators, SEB and TSST-1 (20 ng/mL final concentration each). Cells were incubated for 90 h. Then, Alamar Blue (20 uL/well) (Invitrogen, Cat DAL1100) was added for 6 h, and the plates were read with a fluorescence microplate reader at 546/580 nm (excitation/emission). For PBMC proliferation, cells were plated and activated as above but incubated for only 16 h prior to addition of Alamar Blue. Plates were read after 6 h.

Read-out in experiment [8]: Intercellular Adhesion Molecule 1 (ICAM1), ICAM1 (gene 3383)
The experiment in a line: BSK_KF3CT_ICAM1: BioMAP Diversity Plus: KF3CT Assay for Intercellular Adhesion Molecule 1 (ICAM1) Biomarker Activity (AID 2283067). The conditions noted are these: actives raise or lower the signal; primary human keratinocytes with fibroblasts. The procedure, abridged:
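Human keratinocyte–foreskin fibroblast co-culture was treated for 24 h. Cell-surface ICAM-1 was quantified by ELISA, fitted bidirectionally relative to DMSO. Cytotoxicity was checked in parallel cultures by SRB total-protein staining.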

Read-out in experiment [9]: Interferon-gamma inducible Protein 10 (IP10), CXCL10 (gene 3627)
The experiment in a line: BSK_KF3CT_IP10: BioMAP Diversity Plus: KF3CT Assay for Interferon-gamma inducible Protein 10 (IP10) Biomarker Activity (AID 2283068). Particulars: actives raise or lower the signal; primary human keratinocytes with fibroblasts. The procedure, abridged:
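KF3CT co-culture (keratinocytes + foreskin fibroblasts), 24 h compound, IP-10 by ELISA; bidirectional fit vs DMSO baseline.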

Experiment [10] can be described thus: BSK_KF3CT_SRB: Viability Assessment in the BioMAP Diversity Plus: KF3CT Assay (AID 2283069).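 Further: read 24 h after compound addition; fitted for both signal gain and loss against DMSO baseline.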 Particulars: primary human keratinocytes with fibroblasts. The procedure, abridged: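 Human keratinocyte and foreskin fibroblast co-culture exposed to chemical for 24 h. Total protein measured in parallel cultures by 0.1% sulforhodamine B staining after 10% TCA fixation, read at 560 nm; bidirectional fit relative to DMSO.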

For `O=[N+]([O-])c1ccc([N+](=O)[O-])cc1`, the outcome in [1], in experiment [2], in [3], in [4], in experiment [5] and in [6] was inactive. The result in experiment [7], in experiment [8], in experiment [9] and in experiment [10] was inactive.
What is called AC50 is the concentration at which the activity in the assay is half-maximal. Consider `CC(C)OP(=S)(OC(C)C)SCCNS(=O)(=O)c1ccccc1`, for which the AC50 in [2] is active: 28.4 µM and active: 20.2 µM and active: 27.1 µM; in [4] it was active: 33.2 µM; in [5] it was active: 36.8 µM and active: 36.2 µM; in [7], active: 33.2 µM and active: 36.2 µM; in [9], active: 30.8 µM; in experiment [10], active: 14.9 µM and active: 21.3 µM and active: 14.1 µM. In addition, the result in experiment [4], in experiment [5], in [7], in experiment [8] and in experiment [9] was inactive.
In the case of `CN(C(=O)Cc1cccc2occc12)[C@H]1CC[C@@]2(CCCO2)C[C@@H]1N1CCCC1`, the result in [1], in experiment [2], in [3], in experiment [4], in [5] and in experiment [6] was inactive. Moreover, the outcome in [7], in experiment [8], in experiment [9] and in experiment [10] was inactive.
In the case of `O=C(Cl)Oc1ccccc1`, the result in experiment [1], in [2], in experiment [3], in experiment [4], in experiment [5] and in experiment [6] was inactive. The result in experiment [7], in experiment [8], in [9] and in experiment [10] was inactive.
Turning to `Cc1cc([N+](=O)[O-])cc([N+](=O)[O-])c1O`, the AC50 in experiment [1] is active: 20 µM; in experiment [4] it was active: 20 µM; in [6], active: 4.77 µM. For the same molecule, the outcome in experiment [2], in [3], in experiment [5], in experiment [7], in [8] and in experiment [9] was inactive. In addition, in experiment [10], the outcome was inactive.
With `O=C1C2CC=CCC2C(=O)N1SC(Cl)(Cl)C(Cl)Cl` (centres undefined), the AC50 in experiment [1] was active: 0.597 µM; in [2], active: 148 nM; in [4], active: 1.72 µM; in experiment [6] it was active: 1.03 µM; in [7], active: 1.3 µM; in experiment [9], active: 1.88 µM. Besides, the AC50 in [10] was active: 1.64 µM. The outcome in experiment [3] was inactive.
